According to patent US10406185B2, “Cancer therapy with a parvovirus combined with a BCL-2 inhibitor” (DEUTSCHES KREBSFORSCHUNGSZENTRUM, priority 2013, dated 2019):

System: AsPC-1 xenografts
Settings: nude rats; ABT-737 50 mg/kg every second day for 14 days; H-1PV 2.5 10^8 pfu/animal intratumoral
Description: 5×10^6 AsPC-1 cells were subcutaneously injected in the right flank of 5 week-old female nude rats. After 1 week (when tumour reached the volume of 200-400 mm^3), tumour-bearing animals were randomized in to four groups (n=8). […] Tumour volume was measured with a digital calliper on the days indicated and calculated according to the formula: volume […]=width^2× length/2. Rats were sacrificed when the tumour mass reached 4000 mm^3, in keeping with animal welfare regulations. Data shown represents the average values with standard deviation bars.

## CN(C)CC[C@H](CSc1ccccc1)Nc1ccc(S(=O)(=O)NC(=O)c2ccc(N3CCN(Cc4ccccc4-c4ccc(Cl)cc4)CC3)cc2)cc1[N+](=O)[O-] [ABT-737]
  therapeutic effect on established tumours: failed to have a significant therapeutic effect
